2 substances from article PMC3350483, “Versatile Toolbox for High Throughput Biochemical and Functional Studies with Fluorescent Fusion Proteins” (PLoS ONE, 2012) can be followed below.

By UniProt entry, the sequences of proteins in these tests, tags left out.
UniProt P12004, whole entry: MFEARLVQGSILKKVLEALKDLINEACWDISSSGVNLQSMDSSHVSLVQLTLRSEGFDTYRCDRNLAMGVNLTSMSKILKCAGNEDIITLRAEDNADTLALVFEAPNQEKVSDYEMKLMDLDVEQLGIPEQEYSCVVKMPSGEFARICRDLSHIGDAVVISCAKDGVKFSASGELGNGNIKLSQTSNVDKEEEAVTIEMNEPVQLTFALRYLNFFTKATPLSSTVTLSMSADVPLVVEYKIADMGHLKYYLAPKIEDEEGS

The target of test [1] is GFP-PBD (green fluorescent PCNA-binding domain of Dnmt1). Nature of the test: GFP-multiTrap plate binding assay, fluorescence read-out; GFP fusion held on the GFP-multiTrap plate, blocked with 3% milk, incubated with HEK293T cellular extract holding the RFP fusion for 30 min at RT; molar ratio of bound RFP fusion over GFP fusion by plate reader.
The test system of test [2] is GFP-PBD (PCNA-binding domain of Dnmt1). Nature of the test: In vitro protein-protein binding assay on GFP-multiTrap. As to the method:
(§1) To address the question if such interaction analysis can be performed in a multi-well format we analyzed the interaction of single GFP-fusions with RFP-fusion proteins expressed in mammalian cells. More precisely, we determined quantitative binding ratios between nuclear located proteins involved in DNA-replication (PCNA), [18], DNA-methylation (Dnmt1) as well as in DNA-repair (Xrcc1). As described, we immobilized GFP-fusions on the GFP-multiTrap and incubated them with cell lysate containing RFP-fusion proteins. After binding, we removed unbound material, measured the concentrations of RFP and GFP and calculated the molar binding ratios. Firstly, we determined the binding ratios of the green fluorescent PCNA-binding domain of Dnmt1 (GFP-PBD) to RFP-PCNA and used Dnmt1ΔPBD as a negative control. By measuring the fluorescent signal intensities we detected that RFP-PCNA binds to GFP-PBD in a molar ratio of 1.42±0.31 but not to Dnmt1ΔPBD (Figure 3A).

In another test the test system is GFP-Dnmt1ΔPBD. Described as above. To be noted: Figure 3A; fluorescent signal intensities. As to the method: as §1

Regarding “RFP-PCNA (from UniProt P12004 1-261) (natural protein)”, the molar binding ratio (RFP fusion/GFP fusion) in test [1] came out at 1.42.

Consider “RFP-PCNA: RFP-fusion of PCNA expressed in HEK293T cells, 56 kDa”, for which the “Detection in bound fraction of GFP-PBD by immunoblotting” value in test [2] (Figure 3B, SDS-PAGE, anti-RFP antibody 5F8) is “detected in the input and bound fractions”. Further, the “Binding to GFP-PBD with varied input amount of RFP-fusion (Figure 3C)” value in test [2] (two independent experiments, plate reader) is “binds”. In the test on GFP-Dnmt1ΔPBD, the “Binding of RFP-fusion to GFP-Dnmt1ΔPBD” value was “not”.
